In patent US9926332B2, “Dihydro-oxazinobenzodiazepine compounds, a process for their preparation and pharmaceutical compositions containing them” (priority 2014, dated 2018):

Test system: rats
Experiment: Radial maze (8-arm maze working memory) test in rats, ketamine-induced deficit
Details: ip. administration, FIG. 3

COc1ccc2oc(C3=NN=C(C)Cc4cc5c(cc43)OC(C)C(=O)N5)c(C)c2c1 (single isomer, unassigned; (+)) [Example 4, (+)-6-(5-Methoxy-3-methyl-1-benzofuran-2-yl)-3,9-dimethyl-1,10-dihydro[1,4]oxazino[3,2-h][2,3]benzodiazepin-2(3H)-one]
Effect on ketamine-induced deficit in working memory: Reduction of the ketamine-induced deficit in working memory
